Results on two compounds are retold here after BindingDB's records for patent US12331044 (Merck Sharp & Dohme, 2025).

Protein sequences, listed by entry. Tags and fused reporters are not part of them. Lines headed by an entry give the natural chain unless they say otherwise; changes in a name come on top.
UniProt O15379: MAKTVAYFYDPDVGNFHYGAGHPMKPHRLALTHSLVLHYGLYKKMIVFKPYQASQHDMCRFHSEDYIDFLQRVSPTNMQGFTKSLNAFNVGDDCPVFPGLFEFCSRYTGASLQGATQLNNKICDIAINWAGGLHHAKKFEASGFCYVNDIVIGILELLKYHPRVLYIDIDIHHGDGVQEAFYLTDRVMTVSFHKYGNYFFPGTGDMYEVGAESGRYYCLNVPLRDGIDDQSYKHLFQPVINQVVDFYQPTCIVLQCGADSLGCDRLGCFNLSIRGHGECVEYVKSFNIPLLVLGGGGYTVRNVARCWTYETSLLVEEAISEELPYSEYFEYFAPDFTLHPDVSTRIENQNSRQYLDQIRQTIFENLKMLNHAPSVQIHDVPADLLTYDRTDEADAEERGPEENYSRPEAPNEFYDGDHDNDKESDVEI

One may read the IC50 as the midpoint of a concentration-inhibition curve. Low readings indicate higher potency, high ones lower potency.

Assay [1] addresses Histone deacetylase 3 (Homo sapiens, UniProt O15379).
Assay [2] has as its target T1, Histone deacetylase 6 (Homo sapiens, UniProt Q9UBN7).
T1 sequence (Q9UBN7 whole entry): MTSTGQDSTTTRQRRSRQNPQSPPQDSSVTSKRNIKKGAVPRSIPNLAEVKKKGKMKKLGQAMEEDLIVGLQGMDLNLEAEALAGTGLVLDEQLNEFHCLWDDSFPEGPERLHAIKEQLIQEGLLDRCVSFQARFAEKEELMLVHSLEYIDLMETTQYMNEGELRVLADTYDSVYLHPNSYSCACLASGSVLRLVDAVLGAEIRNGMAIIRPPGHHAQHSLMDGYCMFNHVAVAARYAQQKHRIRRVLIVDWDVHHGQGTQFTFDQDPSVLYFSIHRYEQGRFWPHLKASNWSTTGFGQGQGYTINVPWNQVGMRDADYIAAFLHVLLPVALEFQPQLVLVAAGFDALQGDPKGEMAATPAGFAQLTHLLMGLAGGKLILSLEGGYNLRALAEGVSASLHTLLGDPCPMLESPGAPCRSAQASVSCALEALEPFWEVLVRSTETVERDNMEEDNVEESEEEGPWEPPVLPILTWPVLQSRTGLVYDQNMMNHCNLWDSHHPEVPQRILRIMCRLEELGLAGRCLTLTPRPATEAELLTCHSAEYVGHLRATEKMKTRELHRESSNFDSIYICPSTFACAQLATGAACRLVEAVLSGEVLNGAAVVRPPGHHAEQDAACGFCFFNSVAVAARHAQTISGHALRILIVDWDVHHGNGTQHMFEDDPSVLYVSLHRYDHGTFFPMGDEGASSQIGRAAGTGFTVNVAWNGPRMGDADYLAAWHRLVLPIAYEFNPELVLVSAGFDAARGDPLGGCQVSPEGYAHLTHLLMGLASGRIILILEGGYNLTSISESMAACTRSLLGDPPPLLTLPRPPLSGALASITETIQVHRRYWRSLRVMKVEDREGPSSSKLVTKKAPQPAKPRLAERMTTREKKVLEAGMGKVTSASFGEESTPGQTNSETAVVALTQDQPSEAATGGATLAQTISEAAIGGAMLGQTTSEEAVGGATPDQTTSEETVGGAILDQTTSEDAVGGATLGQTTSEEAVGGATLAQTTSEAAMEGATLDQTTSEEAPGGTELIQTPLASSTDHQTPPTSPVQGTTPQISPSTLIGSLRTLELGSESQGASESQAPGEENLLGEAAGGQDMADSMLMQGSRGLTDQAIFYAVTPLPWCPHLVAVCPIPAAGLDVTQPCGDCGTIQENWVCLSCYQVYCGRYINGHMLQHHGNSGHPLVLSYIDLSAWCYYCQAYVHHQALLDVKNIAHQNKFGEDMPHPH

`N[C@@H](CCCCCC(=O)C1COC=N1)C1NC=C(c2ccccc2F)N1` (stereo partly drawn) [US12331044, Example 36]: the IC50 in assay [1] amounted to 150 nM.
As to `N[C@@H](CCCCCC(=O)c1ccon1)C1NC=C(c2ccccc2F)N1` (stereo partly drawn) [US12331044, Example 37], the IC50 in assay [1] turned out to be 1.18 nM; in assay [2], 45 µM.
